Assay results as given in patent publication US20100076194A1, “SUBSTITUTED 3-AMINO-1-OXO OR THIOXO-1,2,5,6,7,8-HEXAHYDRO-2,7-NAPHTHYRIDINE-4-CARBONITRILES ARE SELECTIVE ALPHA 2B ANTAGONISTS” (ALLERGAN, INC., priority 2008, published 2010).

By UniProt entry, the sequences of proteins in these tests, tags left out.
UniProt P30545, whole entry: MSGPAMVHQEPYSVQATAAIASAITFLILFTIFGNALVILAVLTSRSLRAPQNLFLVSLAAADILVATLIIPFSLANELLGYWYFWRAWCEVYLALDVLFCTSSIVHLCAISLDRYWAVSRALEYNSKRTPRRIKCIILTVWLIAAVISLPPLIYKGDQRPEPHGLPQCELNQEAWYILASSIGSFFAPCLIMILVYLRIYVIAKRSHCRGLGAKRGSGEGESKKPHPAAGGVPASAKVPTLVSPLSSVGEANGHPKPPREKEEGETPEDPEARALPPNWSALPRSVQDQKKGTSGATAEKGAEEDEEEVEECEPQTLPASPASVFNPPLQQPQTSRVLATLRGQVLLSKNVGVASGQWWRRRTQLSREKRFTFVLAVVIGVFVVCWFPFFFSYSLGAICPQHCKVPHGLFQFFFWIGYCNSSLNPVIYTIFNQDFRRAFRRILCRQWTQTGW

Biological target: alpha adrenergic 2B receptor (Mus musculus, UniProt P30545)
Settings: vs norepinephrine, FIG. 1B

Structure (SMILES): CN1CCc2c(C#N)c(N)n(C)c(=S)c2C1 [Example 5, 3-amino-2,7-dimethyl-1-thioxo-1,2,5,6,7,8-hexahydro-2,7-naphthyridine-4-carbonitrile]
- antagonist selectivity as determined by the Schild analysis: selective alpha adrenergic 2B receptor antagonist
